PubChem BioAssay AID651957 (The Scripps Research Institute Molecular Screening Center, 2012)
The list shows a part of the results, in another mix than the full data. Some structures show a salt or complex split into parts, the way the source records it. Activity calls are given as the source filed them.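 The calls were made as follows: active = inhibition above the mean inhibition of all tested compounds plus 3 SD, set per campaign (cut at about 52% in these data); inactive = the rest.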

Chains of the proteins cited; added tags and fusions are not shown.
UniProt Q15596, whole entry: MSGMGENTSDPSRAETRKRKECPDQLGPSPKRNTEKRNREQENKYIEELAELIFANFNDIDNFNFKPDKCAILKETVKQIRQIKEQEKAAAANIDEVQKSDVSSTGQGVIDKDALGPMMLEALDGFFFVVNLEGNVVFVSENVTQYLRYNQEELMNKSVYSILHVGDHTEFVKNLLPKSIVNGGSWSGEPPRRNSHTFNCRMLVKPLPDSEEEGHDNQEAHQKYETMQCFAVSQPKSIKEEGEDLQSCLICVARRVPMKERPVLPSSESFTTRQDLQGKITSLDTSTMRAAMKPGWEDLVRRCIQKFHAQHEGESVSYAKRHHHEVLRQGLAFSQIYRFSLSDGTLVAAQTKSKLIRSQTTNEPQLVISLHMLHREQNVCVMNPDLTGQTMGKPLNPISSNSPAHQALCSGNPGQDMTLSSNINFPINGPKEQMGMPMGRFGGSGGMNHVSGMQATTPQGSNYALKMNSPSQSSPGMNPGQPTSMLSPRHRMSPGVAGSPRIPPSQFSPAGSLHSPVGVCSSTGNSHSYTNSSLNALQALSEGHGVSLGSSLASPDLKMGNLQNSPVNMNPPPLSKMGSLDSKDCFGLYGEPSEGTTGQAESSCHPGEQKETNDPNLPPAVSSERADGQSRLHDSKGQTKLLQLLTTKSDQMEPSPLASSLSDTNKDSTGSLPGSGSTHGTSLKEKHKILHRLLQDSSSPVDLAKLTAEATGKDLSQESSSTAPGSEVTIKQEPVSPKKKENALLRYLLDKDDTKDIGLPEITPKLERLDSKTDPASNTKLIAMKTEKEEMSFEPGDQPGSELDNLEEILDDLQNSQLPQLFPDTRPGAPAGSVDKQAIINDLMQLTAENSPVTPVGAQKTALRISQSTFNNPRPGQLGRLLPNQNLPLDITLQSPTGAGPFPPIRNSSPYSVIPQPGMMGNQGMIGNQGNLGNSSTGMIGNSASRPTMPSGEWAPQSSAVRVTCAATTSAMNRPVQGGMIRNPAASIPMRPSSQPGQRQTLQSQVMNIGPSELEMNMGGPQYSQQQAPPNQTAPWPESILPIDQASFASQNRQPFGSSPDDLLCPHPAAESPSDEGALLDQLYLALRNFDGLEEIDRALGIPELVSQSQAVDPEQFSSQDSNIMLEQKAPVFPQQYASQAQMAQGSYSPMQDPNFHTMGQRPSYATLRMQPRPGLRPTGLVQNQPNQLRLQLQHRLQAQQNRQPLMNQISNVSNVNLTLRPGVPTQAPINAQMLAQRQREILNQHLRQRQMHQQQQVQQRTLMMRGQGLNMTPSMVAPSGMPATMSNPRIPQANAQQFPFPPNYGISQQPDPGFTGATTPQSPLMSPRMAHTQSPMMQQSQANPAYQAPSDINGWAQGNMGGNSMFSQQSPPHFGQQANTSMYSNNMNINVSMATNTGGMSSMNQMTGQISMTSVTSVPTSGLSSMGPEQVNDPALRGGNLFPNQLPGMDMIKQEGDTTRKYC

What follows are compounds tested against Nuclear receptor coactivator 2 (Homo sapiens) (UniProt Q15596) (assay: inhibition of GAL4-SRC2 driven luciferase reporter, primary screen, SRC2 inhibitor project, cell-based, luminescence (AID 651957;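 also: 0% = DMSO treated cells and 100% = cells given Gossypol at 36 µM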)). Conditions: HEK293 GAL4-SRC2 luciferase reporter, at 9 µM, active compounds read high.

| SMILES | inhibition |
| --- | --- |
| O=[N+]([O-])c1cc([N+](=O)[O-])c(Nc2ccccn2)c([N+](=O)[O-])c1 | inactive: -3.25% |
| Cc1c(NP(C)(=O)Oc2ccc(C(C)C)cc2)c(=O)n(-c2ccccc2)n1C (centres undefined) | inactive: 9.23% |
| CCc1ccc(OP(C)(=O)O)cc1 | inactive: -5.66% |
| CP(=O)(Nc1ccccn1)Oc1ccccc1 (centres undefined) | inactive: -43.6% |
| COc1ccccc1OP(C)(=O)Nc1ccc(C)cc1C (centres undefined) | inactive: 3.94% |
| COc1ccccc1OP(C)(=O)Nc1ccc(Br)cc1 (centres undefined) | inactive: 7.28% |
| CN(C)CCOC(=O)C(O)(c1ccccc1)C1CCCC1 (centres undefined) | inactive: -4.27% |
| COc1ccc(OP(C)(=O)Nc2ccccn2)cc1 (centres undefined) | inactive: -3.86% |
| CP(=O)(OCCOc1ccccc1)OCCOc1ccccc1 | inactive: -16.1% |
| CP(=O)(Nc1ccc(Cl)cc1Cl)Oc1ccccc1 (centres undefined) | inactive: -12.8% |
| CCCCCCCCCCCCCCCC1C[N+](C)(C)CCOP(C)(=O)O1 (centres undefined) | inactive: -8.3% |
| O=C1C(O)=C([N+](=O)[O-])C(=O)C(O)=C1[N+](=O)[O-] | inactive: -21.5% |
| Cc1cc(C)cc(OP(C)(=O)Nc2cccc(C(F)(F)F)c2)c1 (centres undefined) | inactive: -19.6% |
| COc1ccc(OP(C)(=O)Nc2ccccc2Br)cc1 (centres undefined) | inactive: -14.7% |
| COc1ccccc1OP(C)(=O)Nc1ccc(C)c(C)c1 (centres undefined) | inactive: -0.24% |
| Nc1ccc2c(ccc3cccnc32)n1.O=[N+]([O-])c1cc([N+](=O)[O-])c(O)c([N+](=O)[O-])c1 | inactive: -79.2% |
| CP(=O)(OC12CC3CC(CC(C3)C1)C2)OC12CC3CC(CC(C3)C1)C2 | inactive: -12% |
| CCOC(=O)c1ccc(NP(C)(=O)Oc2ccc(Cl)cc2)cc1 (centres undefined) | inactive: -2.68% |
| CP(=O)(Nc1ccc(Cl)cc1)Oc1ccc(F)cc1 (centres undefined) | inactive: -14.4% |
| CC(C)(C)c1ccc(OP(C)(=O)O)cc1 | inactive: 15.2% |
| COc1ccccc1OP(C)(=O)Nc1ccccc1Br (centres undefined) | inactive: -7.96% |
| CN(C)C(=O)c1c([N+](=O)[O-])cc([N+](=O)[O-])cc1[N+](=O)[O-] | inactive: 20.9% |
| CCN(CC)CC(O)COC(=O)C(O)(c1ccccc1)C1CCCCC1 (centres undefined) | inactive: -1.75% |
| COc1ccc(OP(C)(=O)Nc2ccc(Br)cc2)cc1 (centres undefined) | inactive: 5.84% |
| CP(=O)(Oc1ccccc1)N1CCOC1=O (centres undefined) | inactive: 10.9% |

| SMILES | inhibition |
| --- | --- |
| CCc1ccc(OP(C)(=O)Nc2cccnc2)cc1 (centres undefined) | inactive: -24.1% |
| COc1ccccc1OP(C)(=O)Nc1c(C)n(C)n(-c2ccccc2)c1=O (centres undefined) | inactive: -19.2% |
| O=C(OCCCN1CCCC1)C(O)(c1ccccc1)C1CCCCC1 (centres undefined) | inactive: -23.7% |
| CP(=O)(Nc1ccc2c(c1)OCCO2)Oc1ccccc1 (centres undefined) | inactive: 2.93% |
| O=[N+]([O-])c1cc([N+](=O)[O-])c(C(F)(F)F)c([N+](=O)[O-])c1O | inactive: 0.43% |
| Cc1ccccc1NP(C)(=O)Nc1ccccc1C | inactive: -21.9% |
| CP(=O)(Nc1ccc(SC(F)(F)F)cc1)Oc1ccc(F)cc1 (centres undefined) | inactive: 15.2% |
| CCOP(=O)(CC)OCC | inactive: -0.34% |
| CCOP(C)(=S)SCC(=O)NC(C)(CC)C(=O)O (centres undefined) | inactive: -18.9% |
| O=[N+]([O-])c1cc([N+](=O)[O-])c(NCC2CCS(=O)(=O)C2)c([N+](=O)[O-])c1 (centres undefined) | inactive: 6.86% |
| Cc1cc(-c2cccc3ccccc23)c(C)cn1.O=[N+]([O-])c1cc([N+](=O)[O-])c(O)c([N+](=O)[O-])c1 | inactive: -19.4% |
| O=[N+]([O-])c1ccc(OP2(=O)COCCO2)cc1 (centres undefined) | inactive: -19.3% |
| Cc1c(C(c2ccc3c(c2)OCO3)c2c(C)n(C)n(-c3ccccc3)c2=O)c(=O)n(-c2ccccc2)n1C.O=[N+]([O-])c1cc([N+](=O)[O-])c(O)c([N+](=O)[O-])c1 | inactive: 16.2% |
| COc1ccc(OP(C)(=O)Nc2cccc(Br)c2)cc1 (centres undefined) | inactive: -15% |
| COc1ccc(NP(C)(=O)Oc2ccccc2OC)cc1 (centres undefined) | inactive: -8.23% |
| CN(C)CCOC(=O)C(O)(c1ccccc1)C1CCCCC1 (centres undefined) | inactive: 15.2% |
| CCN(CC)CCCOC(=O)C(O)(c1ccccc1)C1CCCCC1 (centres undefined) | inactive: 21.5% |
| Cc1c([N+](=O)[O-])cc([N+](=O)[O-])c(Br)c1[N+](=O)[O-] | inactive: 14.6% |
| O=[N+]([O-])c1cc([N+](=O)[O-])c(OC2CCCCC2O)c([N+](=O)[O-])c1 (centres undefined) | inactive: -41% |
| CCCCCOc1ccc(NP(C)(=O)Oc2ccc(Cl)cc2Cl)cc1 (centres undefined) | inactive: 1.4% |
| CP(=O)(Nc1ccccc1)Oc1ccc(F)cc1 (centres undefined) | inactive: -7.15% |
| CCN(CC)CCCNc1ccccc1[N+](=O)[O-].O=[N+]([O-])c1cc([N+](=O)[O-])c(O)c([N+](=O)[O-])c1 | inactive: -20.7% |
| COc1ccc(OP(C)(=O)Nc2ccc(SC(F)(F)F)cc2)cc1 (centres undefined) | inactive: -8.64% |
| CCOC(=O)c1ccc(NP(C)(=O)Oc2ccc(F)cc2)cc1 (centres undefined) | inactive: -20.2% |
| O=C(OCCN1CCN(CCOCc2ccccc2)CC1)C(O)(c1ccccc1)c1ccccc1 | inactive: -13.5% |

| SMILES | inhibition |
| --- | --- |
| O=C(OC1CN2CCC1CC2)c1ccc([N+](=O)[O-])cc1 (centres undefined) | inactive: 14.5% |
| COc1ccc2c(c1O)-c1c(O)c(OC)cc3c1[C@H](C2)[N+](C)(C)CC3.O=[N+]([O-])c1cc([N+](=O)[O-])c([O-])c([N+](=O)[O-])c1[O-] | inactive: -8.49% |
| O=[N+]([O-])c1cc([N+](=O)[O-])c(Nc2ccc(Cl)cc2)c([N+](=O)[O-])c1 | inactive: -148% |
| CC(C)c1ccc(OP(C)(=O)Nc2ccc(SC(F)(F)F)cc2)cc1 (centres undefined) | inactive: -11.5% |
| CP(=O)(Nc1ccccc1F)Oc1ccccc1 (centres undefined) | inactive: 15.1% |
| CP(=O)(Nc1cccc(Br)c1)Oc1ccccc1 (centres undefined) | inactive: 13.5% |
| Cc1cc(C)cc(OP(C)(=O)Nc2ccccn2)c1 (centres undefined) | inactive: -2.99% |
| Cc1ccc(C)c(NP(C)(=O)Oc2ccccc2)c1 (centres undefined) | inactive: -35.7% |
| COc1ccccc1OP(C)(=O)Nc1cccc(Br)c1 (centres undefined) | inactive: -31.5% |
| Cc1cc(C)cc(OP(C)(=O)Nc2ccc(C)cc2C)c1 (centres undefined) | inactive: 11% |
| CCOC(=O)c1ccc(NP(C)(=O)Oc2cc(C)cc(C)c2)cc1 (centres undefined) | inactive: 15.3% |
| CC1=NCCc2c1[nH]c1ccccc21.O=[N+]([O-])c1cc([N+](=O)[O-])c(O)c([N+](=O)[O-])c1 | inactive: 7.43% |
| O=C(O)c1cccc(Nc2c([N+](=O)[O-])cc([N+](=O)[O-])cc2[N+](=O)[O-])c1 | inactive: 14.1% |
| CN1CCCCC1COC(=O)C1(O)c2ccccc2CCc2ccccc21 (centres undefined) | inactive: 7.61% |
| COc1ccccc1OP(C)(=O)Nc1c(C)cccc1C (centres undefined) | inactive: -6.18% |
| CP(=O)(Nc1ccc(SC(F)(F)F)cc1)Oc1ccccc1 (centres undefined) | inactive: 21.6% |
| CCCOc1ccc(NP(C)(=O)Oc2ccc(Cl)cc2)cc1 (centres undefined) | inactive: 25.4% |
| COc1ccc(-c2ccccn2)cc1.O=[N+]([O-])c1cc([N+](=O)[O-])c(O)c([N+](=O)[O-])c1 | inactive: -63.9% |
| O=[N+]([O-])c1cc([N+](=O)[O-])c(Nc2nnnn2CCO)c([N+](=O)[O-])c1 | inactive: -11.3% |
| CCOC(=O)C(CC)C1=NC(C)(C)Cc2ccccc21.O=[N+]([O-])c1cc([N+](=O)[O-])c(O)c([N+](=O)[O-])c1 (centres undefined) | inactive: -43.2% |
| O=[N+]([O-])c1cc([N+](=O)[O-])c(-c2cnn(-c3ccccc3)c2)c([N+](=O)[O-])c1 | inactive: 5.49% |
| Cc1nc2ccc3ccccc3c2s1.O=[N+]([O-])c1cc([N+](=O)[O-])c(O)c([N+](=O)[O-])c1 | inactive: -29.2% |
| O=[N+]([O-])c1cc([N+](=O)[O-])c(-n2nnc3ccccc32)c([N+](=O)[O-])c1 | inactive: 15.2% |
| CN(Cc1cccnc1)C(=O)COc1ccc(Cl)c(Cl)c1.O=[N+]([O-])c1cc([N+](=O)[O-])c(O)c([N+](=O)[O-])c1 | inactive: -40.6% |
| CCOP(C)(=S)SCC(=O)NC(C)C(=O)O (centres undefined) | inactive: -3.19% |

| SMILES | inhibition |
| --- | --- |
| O=[N+]([O-])c1cc([N+](=O)[O-])c(O)c([N+](=O)[O-])c1.c1ccc(Oc2ccncc2)cc1 | inactive: 22.4% |
| CCOC(=O)c1ccc(NP(C)(=O)Oc2ccc(OC)cc2)cc1 (centres undefined) | inactive: 3.08% |
| CP(=O)(Nc1ccccn1)Oc1ccc(Cl)cc1 (centres undefined) | inactive: -1.47% |
| CP(=O)(Nc1ccc(SC(F)(F)F)cc1)Oc1ccc(Cl)cc1 (centres undefined) | inactive: -0.12% |
| Cc1cccc(C)c1OP(C)(=O)Nc1ccc(SC(F)(F)F)cc1 (centres undefined) | inactive: -27.4% |
| CP(=O)(Oc1ccccc1)OC(c1ccccc1)C(F)(F)F (centres undefined) | inactive: 0.9% |
| CCc1ccc(OP(C)(=O)N2CCN(c3ccc([N+](=O)[O-])cc3)CC2)cc1 (centres undefined) | inactive: 14.9% |
| CP(=O)(NC(=O)Nc1ccccc1)Oc1ccccc1 (centres undefined) | inactive: 12.2% |
| Cc1cc(C)cc(OP(C)(=O)Nc2ccc(SC(F)(F)F)cc2)c1 (centres undefined) | inactive: -3.88% |
| CP(=S)(Nn1cnnc1)Oc1ccccc1 (centres undefined) | inactive: -2.55% |
| COc1ccccc1OP(C)(=O)Nc1ccccc1 (centres undefined) | inactive: -9.51% |
| CP(=O)(Nc1ccccc1Br)Oc1ccccc1 (centres undefined) | inactive: 20.2% |
| CCOC(=O)c1ccc(NP(C)(=O)Oc2ccccc2)cc1 (centres undefined) | inactive: -19.7% |
| COc1ccccc1OP(C)(=O)Nc1ccc(C)cc1 (centres undefined) | inactive: 2.63% |
| Cc1ccc(NP(C)(=O)Oc2ccccc2)c(C)c1 (centres undefined) | inactive: -0.72% |
| COc1ccccc1OP(C)(=O)Nc1cc(Cl)ccc1C (centres undefined) | inactive: -4.65% |
| COc1ccc(OP(C)(=O)Nc2cccc(F)c2)cc1 (centres undefined) | inactive: -15.9% |
| Cc1cc(C)cc(OP(C)(N)=O)c1 (centres undefined) | inactive: -25.2% |
| O=[N+]([O-])c1cc([N+](=O)[O-])c(Nc2cccnc2)c([N+](=O)[O-])c1 | inactive: 10.7% |
| CC(C)(C)c1ccc(OP(C)(=O)Nc2ccc(SC(F)(F)F)cc2)cc1 (centres undefined) | inactive: 7.47% |
| Cc1cccc(C)c1OP(C)(N)=O (centres undefined) | inactive: -1.48% |
| O=[N+]([O-])c1ccc2c(c1)C=Nc1ccccc1O2 | inactive: -2.11% |
| COc1ccccc1-c1ccccn1.O=[N+]([O-])c1cc([N+](=O)[O-])c(O)c([N+](=O)[O-])c1 | inactive: -12.5% |
| CCN(CC)CCCOC(=O)C(O)(c1ccccc1)c1ccccc1 | inactive: -17.6% |
